Compound activity (PubChem BioAssay)
Shown are actives, neighbours in structure and some others; about 4.2% of the full set was active somewhere.
MC4R barr agon – activates human MC4R beta-arrestin recruitment; P32245; U2OS MC4R beta-arrestin complementation, luminescence; percent of melanotan II response, DMSO zero; activation, % at 8.9 µM; 360,000 tested, 0.98% active;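 active = activation above a per-plate cutoff, the mean activation of sample wells on that plate plus 3 SD, cut at about 8% in these data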
MC4R antagonist – human MC4R antagonism in cAMP assay. MC4R-expressing cells, MTII-stimulated cAMP, LANCE TR-FRET. P32245. 360,000 tested, 0.48% active. inhibition, % at 6.5 µM. AID 540295;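 active = inhibition above its plate's cutoff, the mean of tested wells on that plate plus 3 SD, cut at about 29% in these data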;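 note: 0% = Melanotan II alone and 100% = Melanotan II plus saturating MCL0020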
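material = U2OS cells stably expressing human melanocortin 4 receptor (MC4R) | also added = Melanotan II challenge | dosing = single nominal compound dose of 6.5 µM | detection = TR-FRET with Eu-cAMP and labeled anti-cAMP, 671 nm | replication = singlicate | timing = compound 30 min, challenge 1 h, detection 1 h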
UUG fidelity – modulators of yeast start codon fidelity, primary screen, whole organism, S. cerevisiae, single point, plate reader; activity score, % at 18.7 µM; actives 0.13% (n = 350,000); S. cerevisiae UUG-firefly luciferase reporter, luminescence/redox ratio;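 active = replicate mean at a twofold rise or more, about +100% in these data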;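 also: firefly luciferase made from a UUG start codon reports start codon fidelity; reporter light over untreated wells divided by growth signal over untreated wells; some hits fall short of that in this replicate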
NALP1 yeast inh – NALP1 inhibition; S. cerevisiae NALP1/ASC/caspase-1 growth, X-gal OD620, 72 h; inhibition, % at 10 µM; 280,000 tested, 0.61% active; AID 2071; in the data active = inhibition mostly above about 24%, no sharp cut-off; inactive = mostly below about 32%
HDAC3 inh – inhibitors of human histone deacetylase 3; O15379; AID 2718; recombinant HDAC3, fluorogenic peptide/trypsin coupled, fluorescence; inhibition, % at 8.3 µM; 320,000 tested, 0.15% active; in the data active = inhibition above about 26%, passing the limit was not always enough
ALR inh – inhibitors of human sulfhydryl oxidase ALR; inhibition, % (no concentration beside the values); AID 485317; purified ALR, DTT oxidation, H2O2 HRP-luminol luminescence; 290,000 tested, 3.8% active; P55789;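 active means mean and each replicate at 75% or more; inconclusive means only one of the two met; inactive means neither met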;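 further: stock transfer was 7.5 nL into about 7.5 µL; 0% = neutral wells and 100% = wells with inactivated enzyme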
MC4R barr conf – human MC4R beta-arrestin agonism confirmation. shares compounds with MC4R barr agon. U2OS MC4R beta-arrestin recruitment, luminescence; scaled DMSO 0%, Melanotan II 100%. activation, % at 8.9 µM. 2,400 tested, 31% active. AID 602192;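 active = mean activation across replicates above the hit cutoff set in the earlier primary screen, cut at about 8% in these data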
MOR DOR agonist – activates mu-delta opioid heterodimer, MC4R agonist counter-screen; shares compounds with MC4R barr agon; U2OS PathHunter beta-arrestin, beta-gal luminescence; percent of deltorphin B response, DMSO zero; activation, % at 9.2 µM; 2,400 tested, 5.8% active;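 active = mean activation across replicates exceeds the hit threshold derived in the earlier primary screen, cut at about 18% in these data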;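 note: 100% = deltorphin B at 0.9 µM final and 0% = DMSO alone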
* = called active by the depositor; / = no result given.

| entry | SMILES | MOR DOR agonist | UUG fidelity | NALP1 yeast inh | MC4R antagonist |
| --- | --- | --- | --- | --- | --- |
| 1 | COc1ccc(NC(=O)N(C)C[C@@H]2OCCCC[C@H](C)Oc3ccc(NS(=O)(=O)c4ccc(C)cc4)cc3C(=O)N([C@H](C)CO)C[C@H]2C)cc1 | / | 17 | / | / |
| 2 | O=C(Nc1cccc(C(F)(F)F)c1)c1cc(-c2ccc(F)cc2)on1 | 4 | / | 9 | 5 |
| 3 | O=C(/C=C/c1cccc(F)c1)OCC(=O)N1CCc2ccccc21 | 3 | -9 | / | 8 |
| 4 | O=C1CSc2ccc(C(=O)Nc3cccc(S(=O)(=O)Nc4ccc(Br)cc4)c3)cc2N1 | 4 | / | 9 | 25 |
| 5 | O=C(O)c1ccc(NC(=O)c2cccc(S(=O)(=O)Nc3ccc(C(=O)O)cc3)c2)cc1 | / | -8 | 1 | 7 |
| 6 | C/C(=N/NC(=O)CNC(=O)c1ccccc1F)c1ccc2c(c1)CCCC2 | / | -8 | 7 | 8 |
| 7 | C/C(=N/NC(=O)CNC(=O)c1ccc2c(c1)OCO2)c1ccc2c(c1)CCCC2 | 4 | / | -5 | 4 |
| 8 | O=C(CCN1CCCCC1)N[C@@H]1CC[C@H](CCNS(=O)(=O)c2ccc(F)cc2)O[C@H]1CO | / | -3 | / | / |
| 9 | Cc1ccc(NC(=O)COC(=O)c2ccccc2Nc2ccccc2)cc1 | 5 | / | 1 | -6 |
| 10 | O=C(COC(=O)c1ccccc1Nc1ccccc1)c1ccccc1 | / | -15 | 12 | 8 |
| 11 | COc1ccc(NC(=O)Nc2ccc3c(c2)CC(=O)N([C@@H](C)CO)C[C@H](C)[C@@H](CN(C)C(=O)NC(C)C)O3)cc1 | / | 33 | / | / |
| 12 | Cc1cccc(NC(=O)C2(C)CC3c4ccccc4C2c2ccccc23)c1 (stereo not drawn) | 8 | 8 | 18 | -2 |

| entry | ALR inh | MC4R barr agon | HDAC3 inh | MC4R barr conf |
| --- | --- | --- | --- | --- |
| 1 | / | / | / | / |
| 2 | -1 | 16* | 1 | 6 |
| 3 | 1 | 28* | -3 | 0 |
| 4 | -14 | 11* | 2 | 3 |
| 5 | / | -1 | 3 | / |
| 6 | -5 | 0 | 14 | / |
| 7 | 3 | 12* | -3 | 1 |
| 8 | / | / | / | / |
| 9 | -25 | 13* | 5 | 3 |
| 10 | / | 1 | 7 | / |
| 11 | / | / | / | / |
| 12 | -30 | 17* | 11 | 4 |

Next section.
| entry | SMILES | MOR DOR agonist | UUG fidelity | NALP1 yeast inh | MC4R antagonist |
| --- | --- | --- | --- | --- | --- |
| 13 | Cc1cccc(NC(=O)C2(c3ccccc3)CCOCC2)c1 | / | / | 9 | -1 |
| 14 | COc1ccc(NC(=O)Nc2ccc3c(c2)C(=O)N([C@@H](C)CO)C[C@@H](C)[C@@H](CN(C)C(=O)Nc2ccc(OC)cc2)OCCCC[C@H](C)O3)cc1 | / | -20 | / | / |
| 15 | O=C(N[C@H]1CC[C@@H](CCNC(=O)C2CCCC2)O[C@H]1CO)c1ccncc1 | / | -14 | / | / |
| 16 | Cc1ccc2oc(-c3ccc(NC(=O)CC(C)C)cc3)nc2c1 | 3 | -8 | -2 | 3 |
| 17 | Cc1cccc2cc3c(NC(=O)c4ccccn4)nn(C)c3nc12 | 4 | -6 | -10 | -3 |
| 18 | O=C(Nc1ccc2nn(-c3ccccc3)nc2c1)c1ccc2c(c1)OCCO2 | / | -5 | 3 | 4 |
| 19 | O=C(Nc1ccc2nn(-c3ccccc3)nc2c1)c1ccc(Br)o1 | 3 | -20 | 22 | 8 |
| 20 | Cc1ccc(-n2nc3ccc(NC(=O)c4ccc5c(c4)OCO5)cc3n2)cc1 | / | -15 | 3 | -1 |
| 21 | CCc1ccc(-n2nc3ccc(NC(=O)c4ccc5c(c4)OCO5)cc3n2)cc1 | 10 | -20 | -6 | -13 |
| 22 | COc1ccc(N2CCN(CC(=O)Nc3nnc(-c4ccccc4)s3)CC2)cc1 | 4 | -17 | 10 | 3 |
| 23 | COC(=O)c1ccc(C(=O)OC)c(NC(=O)CN2CCN(c3ccccc3)CC2)c1 | 14 | -19 | 9 | -3 |
| 24 | COc1ccc(NC(=O)Nc2ccc3c(c2)C(=O)N([C@H](C)CO)C[C@H](C)[C@@H](CN(C)C(=O)c2ccccc2)OCCCC[C@@H](C)O3)cc1 | / | 5 | / | / |

| entry | ALR inh | MC4R barr agon | HDAC3 inh | MC4R barr conf |
| --- | --- | --- | --- | --- |
| 13 | 21 | -1 | 2 | / |
| 14 | / | / | / | / |
| 15 | / | / | / | / |
| 16 | -1 | 14* | -5 | -2 |
| 17 | -11 | 13* | -5 | 2 |
| 18 | / | 4 | -2 | / |
| 19 | -11 | 13* | 13 | 17* |
| 20 | -6 | 1 | 3 | / |
| 21 | -15 | 11* | 0 | 6 |
| 22 | -3 | 11* | 4 | 1 |
| 23 | / | 15* | / | 14* |
| 24 | / | / | / | / |

The listing continues.
| entry | SMILES | MOR DOR agonist | UUG fidelity | NALP1 yeast inh | MC4R antagonist |
| --- | --- | --- | --- | --- | --- |
| 25 | COc1ccc2cc3cc(C(=O)Nc4ccc5c(c4)OCCO5)oc3nc2c1 | 6 | -22 | 6 | -7 |
| 26 | COc1ccc(-c2cc3ccccc3oc2=O)cc1NC(=O)c1ccc(Br)o1 | 3 | -9 | 48 | 3 |
| 27 | COc1cc(NC(=O)c2cc3ccccc3o2)c(OC)cc1Cl | 8 | -11 | 3 | 3 |
| 28 | CCOc1cccc(C(=O)Nc2ccc(NC(=O)c3cc4ccccc4o3)c(OC)c2)c1 | 30* | -4 | 10 | 2 |
| 29 | COc1cc(OC)cc(C(=O)Nc2ccc(-c3nc4ccccc4o3)cc2)c1 | / | -3 | 18 | 5 |
| 30 | COc1cccc(C(=O)Nc2ccc(-c3nc4ccccc4o3)c(O)c2)c1 | 4 | -19 | 37 | -1 |
| 31 | C[C@@H]1CCCCO[C@H](CN(C)S(C)(=O)=O)[C@@H](C)CN([C@H](C)CO)C(=O)c2cc(NC(=O)CCC(F)(F)F)ccc2O1 | / | -17 | / | / |
| 32 | COc1ccc(-c2nc(C#N)c(NCc3ccccc3Cl)o2)cc1 | / | / | 22 | -14 |
| 33 | COc1ccc(-c2nc(C#N)c(NCc3ccccc3Cl)o2)cc1OC | 5 | / | 6 | -12 |
| 34 | COCCCn1c(=O)/c(=C\c2ccc(OC(F)F)c(OC)c2)s/c1=C(/C#N)C(N)=O | 15 | / | / | -4 |
| 35 | Cc1ccc(S(=O)(=O)N[C@H]2C=C[C@@H](CC(=O)NCCCN(C)C)O[C@H]2CO)cc1 | / | -5 | / | / |
| 36 | O=C(CN1CCN(c2ccccc2)CC1)NC(=O)NCc1ccccc1 | 2 | -14 | / | 5 |

| entry | ALR inh | MC4R barr agon | HDAC3 inh | MC4R barr conf |
| --- | --- | --- | --- | --- |
| 25 | -8 | 43* | -2 | 8 |
| 26 | -3 | 13* | -1 | 3 |
| 27 | 1 | 13* | -16 | 8 |
| 28 | 0 | 12* | 2 | 34* |
| 29 | -8 | 7 | -33 | / |
| 30 | -8 | 11* | -2 | 4 |
| 31 | / | / | / | / |
| 32 | -3 | 7 | -9 | / |
| 33 | -6 | 13* | -2 | 8 |
| 34 | / | 12* | 0 | 6 |
| 35 | / | / | / | / |
| 36 | / | 14* | -5 | 5 |

4 compounds drawn at random from those above, as already listed:
| entry | SMILES | MOR DOR agonist | UUG fidelity | NALP1 yeast inh | MC4R antagonist |
| --- | --- | --- | --- | --- | --- |
| 14 | COc1ccc(NC(=O)Nc2ccc3c(c2)C(=O)N([C@@H](C)CO)C[C@@H](C)[C@@H](CN(C)C(=O)Nc2ccc(OC)cc2)OCCCC[C@H](C)O3)cc1 | / | -20 | / | / |
| 25 | COc1ccc2cc3cc(C(=O)Nc4ccc5c(c4)OCCO5)oc3nc2c1 | 6 | -22 | 6 | -7 |
| 21 | CCc1ccc(-n2nc3ccc(NC(=O)c4ccc5c(c4)OCO5)cc3n2)cc1 | 10 | -20 | -6 | -13 |
| 19 | O=C(Nc1ccc2nn(-c3ccccc3)nc2c1)c1ccc(Br)o1 | 3 | -20 | 22 | 8 |

| entry | ALR inh | MC4R barr agon | HDAC3 inh | MC4R barr conf |
| --- | --- | --- | --- | --- |
| 14 | / | / | / | / |
| 25 | -8 | 43* | -2 | 8 |
| 21 | -15 | 11* | 0 | 6 |
| 19 | -11 | 13* | 13 | 17* |

Carrying on:
| entry | SMILES | MOR DOR agonist | UUG fidelity | NALP1 yeast inh | MC4R antagonist |
| --- | --- | --- | --- | --- | --- |
| 37 | O=C(CN1CCN(c2ccccc2F)CC1)NC(=O)NCc1ccccc1 | / | / | -10 | -1 |
| 38 | Cc1nn(-c2ccccc2)c(Cl)c1/C=N/Nc1nc2ccccc2[nH]1 | 10 | / | 12 | -1 |
| 39 | COc1ccc(CN2[C@@H]3CN(C(=O)c4ccccc4)c4ccccc4[C@@H]3[C@@H]2CO)cc1 | / | 3 | / | / |
| 40 | O=C(Nc1cccnc1Cl)c1noc2c1CCc1ccccc1-2 | / | / | -1 | 9 |
| 41 | COc1ccc2c(c1)CCc1c(C(=O)NCCc3ccc(OC)c(OC)c3)noc1-2 | 3 | -5 | 39 | -7 |
| 42 | O=C(NCCc1ccccc1)c1noc2c1CCc1ccccc1-2 | 4 | -1 | 4 | 6 |

| entry | ALR inh | MC4R barr agon | HDAC3 inh | MC4R barr conf |
| --- | --- | --- | --- | --- |
| 37 | -2 | 2 | 1 | / |
| 38 | 28 | 12* | / | 3 |
| 39 | / | / | / | / |
| 40 | -8 | 1 | 6 | / |
| 41 | -10 | 20* | -5 | 6 |
| 42 | -5 | 13* | -2 | 1 |
